Earlier results, collected in patent publication US11702469B2, “Recombinant EGFL7, EGFL7 antibodies, and uses thereof” (Ohio State Innovation Foundation, priority 2017, dated 2023).

System: acute myeloid leukemia
Conditions: low-dose maintenance therapy vs none; cited from earlier work

Question: With “Interleukin-2: low-dose recombinant interleukin-2 maintenance therapy” as the substance, how does the patient outcome read?
Answer: Its patient outcome is “not associated with differences in patient outcome”.
